{
  "source": "patent US20060148728A1",
  "about": "(priority 2000, published 2006)",
  "assay": "Solubilization and stability of podophyllotoxin in surfactant formulations",
  "assay_type": "physicochemical",
  "conditions": "TWEEN-80/alcohol solution diluted with an aqueous solution",
  "data": [
    {"smiles": "COc1cc([C@@H]2c3cc4c(cc3[C@H](O)[C@H]3COC(=O)[C@H]23)OCO4)cc(OC)c1OC", "note": "[podophyllotoxin]", "values": [
      {"measurement": "Precipitation of podophyllotoxin after dilution", "result": "precipitates within several hours"}
    ]}
  ]
}
